Biological target: PRMT5/MEP50 (Homo sapiens, UniProt O14744)
Assay: PRMT5 Biochemical Assay (PRMT5/MEP50 enzyme assay on histone H4 peptide substrate, 3H-SAM Flashplate)
Conditions: read-out: Biochemical IC50

Chains of the proteins cited; added tags and fusions are not shown. A line that says so, or that is headed by a name, gives the form on record, which may keep a tag or linker. Residues count along the entry.
UniProt O14744, 2-637 with tags or gaps: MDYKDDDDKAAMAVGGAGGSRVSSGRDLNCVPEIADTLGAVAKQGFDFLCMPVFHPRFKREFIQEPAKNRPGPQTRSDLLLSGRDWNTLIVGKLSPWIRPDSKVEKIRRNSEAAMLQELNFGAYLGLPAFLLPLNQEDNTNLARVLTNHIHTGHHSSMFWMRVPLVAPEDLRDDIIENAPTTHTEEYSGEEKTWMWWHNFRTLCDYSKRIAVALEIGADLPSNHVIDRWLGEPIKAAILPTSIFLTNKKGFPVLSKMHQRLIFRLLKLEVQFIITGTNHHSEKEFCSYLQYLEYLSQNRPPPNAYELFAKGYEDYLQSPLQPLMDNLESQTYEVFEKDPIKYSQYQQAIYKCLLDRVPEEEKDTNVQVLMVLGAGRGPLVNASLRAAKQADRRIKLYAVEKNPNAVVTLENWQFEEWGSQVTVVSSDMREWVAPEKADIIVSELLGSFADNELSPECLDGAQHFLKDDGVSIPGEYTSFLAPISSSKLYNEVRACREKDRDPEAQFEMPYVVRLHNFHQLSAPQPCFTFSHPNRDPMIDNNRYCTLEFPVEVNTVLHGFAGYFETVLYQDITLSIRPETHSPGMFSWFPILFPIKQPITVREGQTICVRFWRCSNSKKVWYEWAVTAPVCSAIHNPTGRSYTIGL
UniProt Q9BQA1, 2-342 with tags or gaps partner limits assumed: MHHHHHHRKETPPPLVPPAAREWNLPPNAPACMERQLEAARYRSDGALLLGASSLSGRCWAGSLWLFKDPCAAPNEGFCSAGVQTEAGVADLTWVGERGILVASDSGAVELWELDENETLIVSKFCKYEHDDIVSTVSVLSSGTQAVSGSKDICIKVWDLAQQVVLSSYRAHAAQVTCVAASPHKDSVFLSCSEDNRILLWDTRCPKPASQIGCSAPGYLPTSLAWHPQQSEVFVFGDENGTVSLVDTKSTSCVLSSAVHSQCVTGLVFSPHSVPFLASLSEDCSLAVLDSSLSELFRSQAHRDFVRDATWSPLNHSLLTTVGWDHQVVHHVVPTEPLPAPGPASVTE

Row | Compound | IC50
1 | NCCN(CCCc1cnc[nH]1)C[C@H]1O[C@@H](n2cnc3c(N)ncnc32)[C@H](O)[C@@H]1O | < 100 nM
2 | CN(C[C@H]1C[C@@H](n2ccc3c(N)ncnc32)[C@H](O)[C@@H]1O)[C@H]1C[C@H](c2nc3cc(Cl)c(C(F)(F)F)cc3[nH]2)C1 | 101 to 1000 nM
3 | CN(CCN1CCCN(c2ccccn2)CC1)C[C@H]1OC(n2cnc3c(N)ncnc32)[C@H](O)[C@@H]1O (stereo partly shown) | 101 to 1000 nM
4 | CN(CCNc1ccccc1)C[C@H]1O[C@@H](n2cnc3c(N)ncnc32)[C@H](O)[C@@H]1O | < 100 nM
